This note sets out measurements from patent US8835436B2 (priority 2009, dated 2014).

The chains behind the UniProt entries cited, without tags or fusion partners. Where a name states a change or a piece, a line headed by the entry shows the natural chain unless it says otherwise.
UniProt P28335: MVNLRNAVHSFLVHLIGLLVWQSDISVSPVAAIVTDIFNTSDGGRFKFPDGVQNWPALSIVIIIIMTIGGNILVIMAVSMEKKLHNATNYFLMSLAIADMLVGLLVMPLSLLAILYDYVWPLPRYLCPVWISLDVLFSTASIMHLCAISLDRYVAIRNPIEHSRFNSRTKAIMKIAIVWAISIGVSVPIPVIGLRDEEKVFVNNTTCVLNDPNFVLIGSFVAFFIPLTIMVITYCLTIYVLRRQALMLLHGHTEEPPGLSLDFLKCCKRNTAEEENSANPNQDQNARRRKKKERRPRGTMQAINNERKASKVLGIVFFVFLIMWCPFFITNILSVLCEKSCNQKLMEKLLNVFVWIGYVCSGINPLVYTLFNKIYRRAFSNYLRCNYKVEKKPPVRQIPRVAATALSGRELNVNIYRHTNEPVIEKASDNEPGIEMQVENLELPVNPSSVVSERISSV

This assay has as its target human recombinant 5-HT2C receptor (Homo sapiens (Human), UniProt P28335). The note with it: read-out: Binding affinity to serotonin receptor 5-HT2C: IC50.

Structures can show the parent of a compound that is named as a salt.

Take `COc1ccccc1-n1c(C)nc(C(=O)NCCCN2CCN(c3cccc(C)c3C)CC2)c1C` [Example 99, N-(3-(4-(2,3-dimethylphenyl)piperazin-1-yl)propyl)-1-(2-methoxyphenyl)-2,5-dimethyl-1H-imidazole-4-carboxamide dihydrochloride]: the IC50 was found to be 146 nM.
With `Cc1c(Cl)cccc1N1CCN(C[C@@H](O)CNC(=O)c2nc(-c3ccccc3)n(-c3ccc(F)cc3)c2C)CC1` [Example 142, (S)—N-(3-(4-(3-chloro-2-methylphenyl)piperazin-1-yl)-2-hydroxypropyl)-1-(4-fluorophenyl)-5-methyl-2-phenyl-1H-imidazole-4-carboxamide dihydrochloride] the figure was 534 nM.

In general, IC50 refers to the point on the concentration scale where inhibition reaches its midpoint.
